In US8685916B2, “Opioid prodrugs with heterocyclic linkers” (Signature Therapeutics, Inc., priority 2011, dated 2014):

Assay: Pharmacokinetics of hydrocodone prodrugs following PO administration to dogs, with or without Compound 109

With COc1ccc2c3c1O[C@H]1C(=O)CC[C@H]4[C@@H](C2)N(C)CC[C@]314 [Hydrocodone, hydrocodone] the “Tmax ± sd” value (Table 13: dog plasma, PO, hydrocodone […] (0.5 μmol/kg)) was 25 ± 5.76 min and the Tmax (male, beagle, dog, plasma, po, […]) was 25 ± 5.76 min.
